## Measured affinities in a library of Ab-91 heavy chain variants

Binding partner: SARS-CoV-2 spike HR2 peptide, sequence PDVDLGDISGINAS.

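Library AAYL51 holds single substitutions and randomly drawn double and triple substitutions in the CDRs. Affinity was read by AlphaSeq, a pooled yeast mating assay with surface-displayed partners. Binding brings cells together so that they mate, and sequencing counts the barcode pairs among the diploids. Read counts were normalised to the haploid input and turned into Kd by a linear fit to BCL2-family pairs of known affinity, for each replicate. Mating was done three times.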

Ab-91 is the parent antibody, in scFv form: VL, then a 15-residue (Gly4Ser)3 linker, then VH. The light chain is unchanged in all variants.
VL: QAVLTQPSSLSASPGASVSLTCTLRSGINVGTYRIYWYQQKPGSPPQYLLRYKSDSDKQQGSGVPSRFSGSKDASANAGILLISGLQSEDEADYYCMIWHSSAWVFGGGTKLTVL
VH: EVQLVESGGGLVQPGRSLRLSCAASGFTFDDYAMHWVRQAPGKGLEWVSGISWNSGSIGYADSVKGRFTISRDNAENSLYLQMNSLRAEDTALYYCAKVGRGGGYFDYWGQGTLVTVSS

Sequences are complete VH domains.
Numbers give log10(Kd / nM), so 0 is 1 nM and 3 is 1 µM. Smaller is tighter.
A pair that was not seen in that replicate is written "n.d."; this usually means weak binding, but a binder can also be missed.
In this assay the parent's reference entry averaged 1.86; its copy inside this library read 0.88.
Nonspecific signal, from three strains lacking the peptide, appeared in 21% of pairings of library AAYL51, centred on 4.54 (5% of these signals below 3.26); values are not corrected for it. For each scFv, signals with the empty controls are counted beside the result, with their mean in brackets.

VH | replicates, log10 nM | control signals
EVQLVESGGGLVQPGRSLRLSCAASGFTFDDIAMHWVRQAPGKGLEWVSGISWNSGSIGYKDSVKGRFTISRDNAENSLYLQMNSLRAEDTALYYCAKVGRGDGYFDYWGQGTLVTVSS | n.d. / n.d. / n.d. | 2 of 9 (3.62)
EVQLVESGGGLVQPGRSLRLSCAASGFTFFDYAMHWVRQAPGKGLEWVSGIHWNSGSIGYADSVKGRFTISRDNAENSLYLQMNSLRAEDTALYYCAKVGRGGRYFDYWGQGTLVTVSS | 3.93 / n.d. / n.d. | 3 of 9 (4.46)
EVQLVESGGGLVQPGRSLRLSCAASGFYFDDYAMHWVRQAPGKGLEWVSGISWNSGSKGYADSVKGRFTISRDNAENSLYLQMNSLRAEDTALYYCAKVGRMGGYFDYWGQGTLVTVSS | 1.79 / 1.96 / 1.66 | 7 of 9 (4.30)
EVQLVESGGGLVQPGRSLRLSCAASGFTFDDPAMHWVRQAPGKGLEWVSGISWNSGSIGYADSVDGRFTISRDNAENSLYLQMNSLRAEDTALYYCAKVGRGYGYFDYWGQGTLVTVSS | 4.28 / 3.82 / n.d. | 5 of 9 (4.73)
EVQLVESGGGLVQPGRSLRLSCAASGFTFDDYAMHWVRQAPGKGLEWVSGISWNSGSIGYADSVDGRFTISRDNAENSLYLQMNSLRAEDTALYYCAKAGRGGGYFDYWGQGTLVTVSS | 4.10 / n.d. / n.d. | 3 of 9 (4.24)
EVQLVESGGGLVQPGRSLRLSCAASGFTFDDYAMHWVRQAPGKGLEWVSGISWKSSSIGYADSVKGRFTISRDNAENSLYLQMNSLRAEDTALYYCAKVGRGEGYFDYWGQGTLVTVSS | 3.02 / 3.58 / 3.35 | 0 of 9
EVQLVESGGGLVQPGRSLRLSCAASGWTTDDYAMHWVRQAPGKGLEWVSGISWNSGSIGYAMSVKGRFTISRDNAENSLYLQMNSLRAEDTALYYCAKVGRGGGYFDYWGQGTLVTVSS | n.d. / n.d. / n.d. | 2 of 9 (5.09)
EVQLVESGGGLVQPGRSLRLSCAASAFTFDDYAGHWVRQAPGKGLEWVSGISWNSGSIGYADSVKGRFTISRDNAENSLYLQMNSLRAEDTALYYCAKVGRGGGFFDYWGQGTLVTVSS | 5.35 / 5.93 / n.d. | 5 of 9 (5.45)
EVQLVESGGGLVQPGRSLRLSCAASGNTFDDYAMHWVRQAPGKGLEWVSGISWNSGSIMYADSVKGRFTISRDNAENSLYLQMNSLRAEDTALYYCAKVGRGVGYFDYWGQGTLVTVSS | 4.57 / 5.37 / n.d. | 2 of 9 (3.83)
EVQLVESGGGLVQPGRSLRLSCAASGFTFDDWAMHWVRQAPGKGLEWVSGISWESGSIGYADSVKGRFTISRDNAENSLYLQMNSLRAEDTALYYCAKVIRGGGYFDYWGQGTLVTVSS | n.d. / n.d. / n.d. | 0 of 9
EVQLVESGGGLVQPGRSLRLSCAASGFTVDDYAMHWVRQAPGKGLEWVSGISWNSGSIGDADSVKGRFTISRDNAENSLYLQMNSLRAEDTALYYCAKVVRGGGYFDYWGQGTLVTVSS | n.d. / 5.07 / n.d. | 0 of 9
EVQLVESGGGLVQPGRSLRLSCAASGFTFDHYAMHWVRQAPGKGLEWVSGISWNSGSIGYSDAVKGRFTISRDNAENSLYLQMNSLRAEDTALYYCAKVGRGGGYFDYWGQGTLVTVSS | 2.27 / 2.26 / 1.52 | 1 of 9 (4.27)
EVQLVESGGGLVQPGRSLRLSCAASGFTFDDYAMHWVRQAPGKGLEWVSGIWWNSISIGGADSVKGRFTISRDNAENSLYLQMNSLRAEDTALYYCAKVGRGGGYFDYWGQGTLVTVSS | 4.61 / 5.36 / 4.82 | 8 of 9 (5.00)
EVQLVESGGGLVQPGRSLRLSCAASGFTFDDYAMHWVRQAPGKGLEWVSGISWNSGSIQYADSVKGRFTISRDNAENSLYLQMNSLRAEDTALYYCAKVGRGGGYFDYWGQGTLVTVSS | n.d. / n.d. / n.d. | 0 of 9
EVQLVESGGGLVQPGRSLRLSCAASGFYFDDYAMHWVRQAPGKGLEWVSGISWNSGSIGYRDSVKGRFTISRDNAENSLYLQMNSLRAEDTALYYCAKVGRGGGYFDYWGQGTLVTVSS | 2.24 / 2.48 / 1.78 | 2 of 9 (4.09)
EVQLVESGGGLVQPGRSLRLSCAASGFTFDDYAMHWVRQAPGKGLEWVSGISWNSGSIGYADSVKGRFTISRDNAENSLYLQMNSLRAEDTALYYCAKVGSFGGYFDYWGQGTLVTVSS | 3.49 / 3.40 / n.d. | 3 of 9 (4.16)

Excerpt, the first 2 entries:

VH,"replicates, log10 nM",control signals
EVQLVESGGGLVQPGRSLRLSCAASGFTFDDIAMHWVRQAPGKGLEWVSGISWNSGSIGYKDSVKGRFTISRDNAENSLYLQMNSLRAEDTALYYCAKVGRGDGYFDYWGQGTLVTVSS,n.d. / n.d. / n.d.,2 of 9 (3.62)
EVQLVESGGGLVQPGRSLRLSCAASGFTFFDYAMHWVRQAPGKGLEWVSGIHWNSGSIGYADSVKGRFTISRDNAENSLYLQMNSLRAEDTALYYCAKVGRGGRYFDYWGQGTLVTVSS,3.93 / n.d. / n.d.,3 of 9 (4.46)

Source: Engelhart et al. 2022 (doi:10.1038/s41597-022-01779-4), MIT Lincoln Laboratory and A-Alpha Bio; data file from the FLAb repository.